Experimental findings from patent US9301963B2, “Treatment tool and method of gradual withdrawal from bezodiazepine dependency” (priority 2011, dated 2016) are described below.

The data set relates to benzodiazepine-dependent patient. Briefly: Step taper method (comparison, FIG. 3). To be noted: starting dose 14.0 mg, line 320.

As for `CN1C(=O)CN=C(c2ccccc2)c2cc(Cl)ccc21` [Diazepam], the “withdrawal symptoms after sharp dosage drops (steps)” value is on record as “always accompanied by hard-to-endure benzodiazepine withdrawal symptoms”.
